# Membrane permeability of cyclic peptides

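The data file gives no further conditions (lipid, pH, time, direction or concentration), and values from different papers need not be comparable. The list need not hold all peptides of the study. Peptides that the database sets to -10, its floor, are left out.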

PAMPA measures passive passage through an artificial lipid membrane.
Permeability is in 10^-6 cm/s, converted from the database's log10 values; higher is more permeable.

| PAMPA (10^-6 cm/s) | SMILES |
|---|---|
| 2.3 | CC(=O)N1CCC[C@@H]1C(=O)N(C)[C@H](CC(C)C)C(=O)N[C@@H]1C(=O)N(C)[C@@H](CC(C)C)C(=O)N(C)[C@@H](CC(C)C)C(=O)N[C@H](CC(C)C)C(=O)N(C)[C@@H](C)C(=O)N[C@H](CC(C)C)C(=O)N2CCC[C@@H]2C(=O)O[C@@H]1C |
| 4.7 | CC(=O)N1CCC[C@@H]1C(=O)N(C)[C@@H](CC(C)C)C(=O)N[C@@H]1C(=O)N(C)[C@H](CC(C)C)C(=O)N(C)[C@H](CC(C)C)C(=O)N[C@@H](CC(C)C)C(=O)N(C)[C@H](C)C(=O)N[C@H](CC(C)C)C(=O)N2CCC[C@H]2C(=O)O[C@@H]1C |
| 2.6 | CC(=O)N1CCC[C@@H]1C(=O)N(C)[C@@H](CC(C)C)C(=O)N[C@@H]1C(=O)N[C@@H](CC(C)C)C(=O)N(C)[C@H](CC(C)C)C(=O)N(C)[C@@H](CC(C)C)C(=O)N[C@@H](C)C(=O)N[C@@H](CC(C)C)C(=O)N2CCC[C@@H]2C(=O)O[C@@H]1C |
| 0.16 | CC(=O)N1CCC[C@@H]1C(=O)N(C)[C@H](CC(C)C)C(=O)N[C@@H]1C(=O)N[C@H](CC(C)C)C(=O)N[C@H](CC(C)C)C(=O)N(C)[C@@H](CC(C)C)C(=O)N[C@@H](C)C(=O)N[C@H](CC(C)C)C(=O)N2CCC[C@H]2C(=O)O[C@@H]1C |
| 5.6 | CC(=O)N1CCC[C@H]1C(=O)N(C)[C@@H](CC(C)C)C(=O)N[C@@H]1C(=O)N[C@H](CC(C)C)C(=O)N[C@@H](CC(C)C)C(=O)N(C)[C@H](CC(C)C)C(=O)N(C)[C@@H](C)C(=O)N[C@H](CC(C)C)C(=O)N2CCC[C@H]2C(=O)O[C@@H]1C |
| 8.3 | CC(=O)N1CCC[C@H]1C(=O)N[C@@H]1C(=O)N[C@H](CC(C)C)C(=O)N[C@@H](CC(C)C)C(=O)N(C)[C@@H](CC(C)C)C(=O)N[C@H](CC(C)C)C(=O)N[C@H](C)C(=O)N[C@@H](CC(C)C)C(=O)N2CCC[C@@H]2C(=O)O[C@@H]1C |
| 2.4 | CC(=O)N1CCC[C@H]1C(=O)N[C@@H]1C(=O)N[C@H](CC(C)C)C(=O)N[C@H](CC(C)C)C(=O)N[C@@H](CC(C)C)C(=O)N(C)[C@@H](CC(C)C)C(=O)N[C@@H](C)C(=O)N[C@@H](CC(C)C)C(=O)N2CCC[C@@H]2C(=O)O[C@@H]1C |
| 1.5 | CC(=O)N1CCC[C@H]1C(=O)N(C)[C@H](CC(C)C)C(=O)N[C@@H]1C(=O)N(C)[C@H](CC(C)C)C(=O)N(C)[C@@H](CC(C)C)C(=O)N[C@@H](CC(C)C)C(=O)N(C)[C@H](C)C(=O)N[C@H](CC(C)C)C(=O)N2CCC[C@@H]2C(=O)O[C@@H]1C |
| 2 | CC(=O)N1CCC[C@H]1C(=O)N[C@@H]1C(=O)N(C)[C@H](CC(C)C)C(=O)N[C@H](CC(C)C)C(=O)N[C@@H](CC(C)C)C(=O)N(C)[C@H](CC(C)C)C(=O)N(C)[C@@H](C)C(=O)N[C@@H](CC(C)C)C(=O)N2CCC[C@@H]2C(=O)O[C@@H]1C |
| 10 | CC(=O)N1CCC[C@H]1C(=O)N[C@@H]1C(=O)N(C)[C@H](CC(C)C)C(=O)N(C)[C@H](CC(C)C)C(=O)N(C)[C@@H](CC(C)C)C(=O)N(C)[C@H](CC(C)C)C(=O)N(C)[C@@H](C)C(=O)N[C@@H](CC(C)C)C(=O)N2CCC[C@@H]2C(=O)O[C@@H]1C |
| 0.2 | CC(=O)N1CCC[C@H]1C(=O)N(C)[C@@H](CC(C)C)C(=O)N[C@@H]1C(=O)N(C)[C@@H](CC(C)C)C(=O)N(C)[C@@H](CC(C)C)C(=O)N(C)[C@@H](CC(C)C)C(=O)N[C@@H](C)C(=O)N[C@H](CC(C)C)C(=O)N2CCC[C@H]2C(=O)O[C@@H]1C |
| 3.4 | CC(=O)N[C@@H]1C(=O)N2CCC[C@H]2C(=O)N(C)[C@H](CC(C)C)C(=O)N(C)[C@H](CC(C)C)C(=O)N(C)[C@H](CC(C)C)C(=O)N(C)[C@@H](CC(C)C)C(=O)N(C)[C@H](C)C(=O)N[C@@H](CC(C)C)C(=O)N2CCC[C@@H]2C(=O)O[C@@H]1C |
| 0.13 | CC(=O)N1CCC[C@@H]1C(=O)N(C)[C@@H](CC(C)C)C(=O)N[C@@H]1C(=O)N(C)[C@@H](CC(C)C)C(=O)N[C@@H](CC(C)C)C(=O)N[C@H](CC(C)C)C(=O)N(C)[C@H](C)C(=O)N[C@H](CC(C)C)C(=O)N2CCC[C@H]2C(=O)O[C@@H]1C |
| 6 | CC(=O)N1CCC[C@H]1C(=O)N(C)[C@H](CC(C)C)C(=O)N[C@@H]1C(=O)N[C@H](CC(C)C)C(=O)N(C)[C@@H](CC(C)C)C(=O)N(C)[C@H](CC(C)C)C(=O)N(C)[C@H](C)C(=O)N[C@@H](CC(C)C)C(=O)N2CCC[C@H]2C(=O)O[C@@H]1C |
| 5.2 | CC(=O)N1CCC[C@H]1C(=O)N(C)[C@H](CC(C)C)C(=O)N[C@@H]1C(=O)N(C)[C@H](CC(C)C)C(=O)N(C)[C@@H](CC(C)C)C(=O)N(C)[C@H](CC(C)C)C(=O)N[C@H](C)C(=O)N[C@H](CC(C)C)C(=O)N2CCC[C@H]2C(=O)O[C@@H]1C |
| 1 | CC(=O)N1CCC[C@@H]1C(=O)N(C)[C@H](CC(C)C)C(=O)N[C@@H]1C(=O)N(C)[C@H](CC(C)C)C(=O)N[C@@H](CC(C)C)C(=O)N[C@H](CC(C)C)C(=O)N(C)[C@H](C)C(=O)N[C@H](CC(C)C)C(=O)N2CCC[C@H]2C(=O)O[C@@H]1C |
| 0.01 | CC(=O)N1CCC[C@H]1C(=O)N(C)[C@H](CC(C)C)C(=O)N[C@@H]1C(=O)N[C@H](CC(C)C)C(=O)N[C@H](CC(C)C)C(=O)N[C@H](CC(C)C)C(=O)N[C@@H](C)C(=O)N[C@H](CC(C)C)C(=O)N2CCC[C@@H]2C(=O)O[C@@H]1C |
| 0.91 | CC(=O)N1CCC[C@@H]1C(=O)N(C)[C@@H](CC(C)C)C(=O)N[C@@H]1C(=O)N(C)[C@H](CC(C)C)C(=O)N(C)[C@@H](CC(C)C)C(=O)N[C@@H](CC(C)C)C(=O)N(C)[C@H](C)C(=O)N[C@H](CC(C)C)C(=O)N2CCC[C@H]2C(=O)O[C@@H]1C |
| 5.6 | CC(=O)N1CCC[C@H]1C(=O)N(C)[C@@H](CC(C)C)C(=O)N[C@@H]1C(=O)N(C)[C@H](CC(C)C)C(=O)N[C@@H](CC(C)C)C(=O)N(C)[C@H](CC(C)C)C(=O)N(C)[C@@H](C)C(=O)N[C@@H](CC(C)C)C(=O)N2CCC[C@@H]2C(=O)O[C@@H]1C |
| 0.051 | CC(=O)N1CCC[C@H]1C(=O)N(C)[C@@H](CC(C)C)C(=O)N[C@@H]1C(=O)N[C@H](CC(C)C)C(=O)N[C@H](CC(C)C)C(=O)N[C@@H](CC(C)C)C(=O)N[C@@H](C)C(=O)N[C@H](CC(C)C)C(=O)N2CCC[C@@H]2C(=O)O[C@@H]1C |

A selection of 3 entries from above:

SMILES	PAMPA (10^-6 cm/s)
CC(=O)N1CCC[C@H]1C(=O)N[C@@H]1C(=O)N(C)[C@H](CC(C)C)C(=O)N[C@H](CC(C)C)C(=O)N[C@@H](CC(C)C)C(=O)N(C)[C@H](CC(C)C)C(=O)N(C)[C@@H](C)C(=O)N[C@@H](CC(C)C)C(=O)N2CCC[C@@H]2C(=O)O[C@@H]1C	2
CC(=O)N1CCC[C@H]1C(=O)N[C@@H]1C(=O)N[C@H](CC(C)C)C(=O)N[C@@H](CC(C)C)C(=O)N(C)[C@@H](CC(C)C)C(=O)N[C@H](CC(C)C)C(=O)N[C@H](C)C(=O)N[C@@H](CC(C)C)C(=O)N2CCC[C@@H]2C(=O)O[C@@H]1C	8.3
CC(=O)N1CCC[C@H]1C(=O)N(C)[C@H](CC(C)C)C(=O)N[C@@H]1C(=O)N(C)[C@H](CC(C)C)C(=O)N(C)[C@@H](CC(C)C)C(=O)N[C@@H](CC(C)C)C(=O)N(C)[C@H](C)C(=O)N[C@H](CC(C)C)C(=O)N2CCC[C@@H]2C(=O)O[C@@H]1C	1.5

Collected by the curators of CycPeptMPDB (Li et al. 2023) from Kelly et al. 2021, doi:10.1021/jacs.0c06115.